Reference: patent US6340581B1, “Biological production of products from waste gases” (Bioengineering Resources, Inc., priority 1992, dated 2002)

Assay: Acetic acid distribution coefficient study: solvents for recovering acetic acid from the permeate
Format: physicochemical

With `CCCCOP(=O)(OCCCC)OCCCC` the “Equilibrium Aqueous Acetic Acid Concentration” value (aqueous phase after contact with the solvent) was 1.657 g/L and the “Acetic Acid Distribution Coefficients” value (solvent vs aqueous phase) was 2.38.
